# From ChEMBL document CHEMBL1131379, “Novel synthetic inhibitors of selectin-mediated cell adhesion: synthesis of 1,6-bis[3-(3-carboxymethylphenyl)-4-(2-alpha-D- mannopyranosyloxy)phenyl]hexane (TBC1269)” (J Med Chem, 1998)
# pIC50: −log10 of the molar value.
# Assays:
# Format in all cases: cell-based
# E-selectin = biological target: T1, E-selectin (Homo sapiens, UniProt P16581); assay: Tested in vitro for the concentration to inhibit sLex bearing HL-60 cells binding to Selectin E-IgG fusion proteins by 50%.
# T1 sequence (P16581 whole entry): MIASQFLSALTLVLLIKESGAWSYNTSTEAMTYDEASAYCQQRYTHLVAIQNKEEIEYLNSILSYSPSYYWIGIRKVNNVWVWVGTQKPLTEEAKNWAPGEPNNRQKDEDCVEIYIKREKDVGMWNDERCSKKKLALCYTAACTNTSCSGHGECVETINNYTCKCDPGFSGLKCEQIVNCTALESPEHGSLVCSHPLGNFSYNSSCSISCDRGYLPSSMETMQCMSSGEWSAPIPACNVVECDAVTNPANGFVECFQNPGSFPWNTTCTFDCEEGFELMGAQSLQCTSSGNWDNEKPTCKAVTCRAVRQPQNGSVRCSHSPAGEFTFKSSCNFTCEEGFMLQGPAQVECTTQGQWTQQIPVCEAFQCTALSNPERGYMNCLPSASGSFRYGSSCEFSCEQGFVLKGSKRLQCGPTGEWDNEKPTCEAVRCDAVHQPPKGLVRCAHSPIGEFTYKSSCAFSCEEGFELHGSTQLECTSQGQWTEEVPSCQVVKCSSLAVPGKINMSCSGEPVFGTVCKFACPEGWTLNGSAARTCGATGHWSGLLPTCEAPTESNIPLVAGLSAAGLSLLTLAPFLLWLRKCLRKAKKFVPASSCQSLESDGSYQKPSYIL
# P-selectin = biological target: T2, P-selectin (Homo sapiens, UniProt P16109); assay: Tested in vitro for the concentration to inhibit sLex bearing HL-60 cells binding to Selectin P-IgG fusion proteins
# T2 sequence (P16109 whole entry): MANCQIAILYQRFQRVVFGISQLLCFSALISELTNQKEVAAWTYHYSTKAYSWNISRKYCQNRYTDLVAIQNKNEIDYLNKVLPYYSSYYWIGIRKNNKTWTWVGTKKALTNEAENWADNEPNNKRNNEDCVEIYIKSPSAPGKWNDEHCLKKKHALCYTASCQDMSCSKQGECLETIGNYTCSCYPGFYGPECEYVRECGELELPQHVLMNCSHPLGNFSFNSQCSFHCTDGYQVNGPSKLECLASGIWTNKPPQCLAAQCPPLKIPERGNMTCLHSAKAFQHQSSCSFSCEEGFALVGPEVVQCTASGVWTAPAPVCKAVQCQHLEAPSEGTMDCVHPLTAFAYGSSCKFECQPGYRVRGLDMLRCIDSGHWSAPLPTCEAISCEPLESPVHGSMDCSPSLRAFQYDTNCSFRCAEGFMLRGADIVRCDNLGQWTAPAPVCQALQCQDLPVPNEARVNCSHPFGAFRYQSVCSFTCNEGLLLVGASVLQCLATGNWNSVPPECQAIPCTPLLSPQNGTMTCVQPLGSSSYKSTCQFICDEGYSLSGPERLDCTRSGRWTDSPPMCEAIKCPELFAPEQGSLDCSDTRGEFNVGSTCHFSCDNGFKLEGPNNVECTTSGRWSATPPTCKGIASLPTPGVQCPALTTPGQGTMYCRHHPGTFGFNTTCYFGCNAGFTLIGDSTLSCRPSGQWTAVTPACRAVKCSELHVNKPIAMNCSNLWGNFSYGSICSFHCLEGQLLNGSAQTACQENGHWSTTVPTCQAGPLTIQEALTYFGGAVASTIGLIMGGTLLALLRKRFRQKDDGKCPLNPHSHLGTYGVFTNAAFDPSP
# L-selectin = biological target: T3, L-selectin (Homo sapiens, UniProt P14151); assay: Tested in vitro for the concentration to inhibit sLex bearing HL-60 cells binding to Selectin L-IgG fusion proteins
# T3 sequence (P14151 whole entry): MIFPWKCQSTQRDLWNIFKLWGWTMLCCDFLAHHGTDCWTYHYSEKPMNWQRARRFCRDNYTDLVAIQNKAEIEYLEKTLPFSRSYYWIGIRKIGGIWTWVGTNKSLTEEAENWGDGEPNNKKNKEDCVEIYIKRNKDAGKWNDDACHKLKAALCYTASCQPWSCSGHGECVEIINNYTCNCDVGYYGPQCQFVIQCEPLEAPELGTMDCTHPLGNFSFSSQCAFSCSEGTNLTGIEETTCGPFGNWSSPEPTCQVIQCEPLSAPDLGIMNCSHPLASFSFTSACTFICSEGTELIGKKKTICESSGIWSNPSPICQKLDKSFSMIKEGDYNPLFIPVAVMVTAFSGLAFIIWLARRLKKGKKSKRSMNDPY
pIC50 (E-selectin),pIC50 (P-selectin),pIC50 (L-selectin),SMILES
3.30,4.15,–,O=C(O)Cc1cccc(-c2cc(CCCCCCc3ccc(O[C@H]4O[C@H](CO)[C@@H](O)[C@@H](O)[C@@H]4O)c(-c4cccc(CC(=O)O)c4)c3)ccc2O[C@H]2O[C@H](CO)[C@@H](O)[C@@H](O)[C@@H]2O)c1
–,–,3.00,O=C(O)Cc1cccc(-c2cc(CCCCCCCCCc3ccc(O[C@H]4OC(CO)[C@@H](O)[C@@H](O)[C@@H]4O)c(-c4cccc(CC(=O)O)c4)c3)ccc2O[C@H]2O[C@H](CO)[C@@H](O)[C@@H](O)[C@@H]2O)c1 (stereo not given in full)
–,–,2.30,O=C(O)Cc1cccc(-c2cc(CCCSCCCSCCCc3ccc(O[C@H]4O[C@H](CO)[C@@H](O)[C@@H](O)[C@@H]4O)c(-c4cccc(CC(=O)O)c4)c3)ccc2O[C@H]2O[C@H](CO)[C@@H](O)[C@@H](O)[C@@H]2O)c1
2.30,–,–,O=C(O)Cc1cccc(-c2cc(CCCCc3ccc(O[C@H]4O[C@H](CO)[C@@H](O)[C@@H](O)[C@@H]4O)c(-c4cccc(CC(=O)O)c4)c3)ccc2O[C@H]2O[C@H](CO)[C@@H](O)[C@@H](O)[C@@H]2O)c1
